Assay results reported in ChEMBL document CHEMBL1140703, “Design, synthesis, and biological evaluation of classical and nonclassical 2-amino-4-oxo-5-substituted-6-methylpyrrolo[3,2-d]pyrimidines as dual thymidylate synthase and dihydrofolate reductase inhibitors” (J Med Chem, 2008).

Assay: Inhibition of Toxoplasma gondii thymidylate synthase

## Nc1nc2[nH]cc(CCc3ccc(C(=O)N[C@@H](CCC(=O)O)C(=O)O)cc3)c2c(=O)[nH]1 [PEMETREXED]
  IC50: 2800 nM
